SMILES strings stand for the structures. pKi: −log10 of the molar value.

By UniProt entry, the sequences of proteins in these tests, tags left out. Residues count along the entry.
UniProt P40881, 35-247 limits assumed: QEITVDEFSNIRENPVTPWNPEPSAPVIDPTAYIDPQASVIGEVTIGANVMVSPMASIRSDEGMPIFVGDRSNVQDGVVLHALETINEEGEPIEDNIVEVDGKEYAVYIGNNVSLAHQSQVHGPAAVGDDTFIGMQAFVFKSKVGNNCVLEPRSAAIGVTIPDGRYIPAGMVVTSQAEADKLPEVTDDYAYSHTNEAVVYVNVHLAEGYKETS

This passage reports Ki results from BindingDB's records for 15357993.

The target of the assay is Carbonic anhydrase (Methanosarcina thermophila (strain ATCC 43570 / DSM 1825 / OCM 12 / VKM B-1830 / TM-1), UniProt P40881).

In general, pKi refers to the negative decadic logarithm of the Ki, by convention in mol/L. In turn, `[N-]=[N+]=[N-]` showed a pKi of 2.24.
